# Data: US6552216B1, “Molecular model for VLA-4 inhibitors” (Biogen, Inc., priority 1996, dated 2003)
# By UniProt entry, the sequences of proteins in these tests, tags left out. Residues count along the entry.
# UniProt P05556, 21-798 limits assumed: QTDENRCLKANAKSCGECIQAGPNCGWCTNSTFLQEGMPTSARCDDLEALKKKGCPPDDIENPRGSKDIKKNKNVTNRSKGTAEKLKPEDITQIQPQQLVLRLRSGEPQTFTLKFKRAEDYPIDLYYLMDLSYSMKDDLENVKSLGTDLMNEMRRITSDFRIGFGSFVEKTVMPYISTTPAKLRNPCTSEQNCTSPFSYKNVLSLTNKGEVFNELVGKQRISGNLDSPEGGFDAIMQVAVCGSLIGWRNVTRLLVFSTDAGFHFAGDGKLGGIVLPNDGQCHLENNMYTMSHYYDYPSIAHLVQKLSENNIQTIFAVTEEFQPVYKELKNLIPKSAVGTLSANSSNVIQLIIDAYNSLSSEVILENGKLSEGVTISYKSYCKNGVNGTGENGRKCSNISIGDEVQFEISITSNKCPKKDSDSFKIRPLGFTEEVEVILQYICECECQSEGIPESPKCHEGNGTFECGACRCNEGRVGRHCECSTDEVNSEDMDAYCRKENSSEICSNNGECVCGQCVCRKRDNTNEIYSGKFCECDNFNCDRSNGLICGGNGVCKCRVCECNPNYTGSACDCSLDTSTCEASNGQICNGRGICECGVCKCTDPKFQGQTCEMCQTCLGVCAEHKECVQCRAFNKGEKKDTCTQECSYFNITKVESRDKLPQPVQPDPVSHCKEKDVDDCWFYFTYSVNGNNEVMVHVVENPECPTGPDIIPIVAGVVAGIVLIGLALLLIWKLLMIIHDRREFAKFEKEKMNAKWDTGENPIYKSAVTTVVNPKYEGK
# UniProt P13612, 34-1032 limits assumed: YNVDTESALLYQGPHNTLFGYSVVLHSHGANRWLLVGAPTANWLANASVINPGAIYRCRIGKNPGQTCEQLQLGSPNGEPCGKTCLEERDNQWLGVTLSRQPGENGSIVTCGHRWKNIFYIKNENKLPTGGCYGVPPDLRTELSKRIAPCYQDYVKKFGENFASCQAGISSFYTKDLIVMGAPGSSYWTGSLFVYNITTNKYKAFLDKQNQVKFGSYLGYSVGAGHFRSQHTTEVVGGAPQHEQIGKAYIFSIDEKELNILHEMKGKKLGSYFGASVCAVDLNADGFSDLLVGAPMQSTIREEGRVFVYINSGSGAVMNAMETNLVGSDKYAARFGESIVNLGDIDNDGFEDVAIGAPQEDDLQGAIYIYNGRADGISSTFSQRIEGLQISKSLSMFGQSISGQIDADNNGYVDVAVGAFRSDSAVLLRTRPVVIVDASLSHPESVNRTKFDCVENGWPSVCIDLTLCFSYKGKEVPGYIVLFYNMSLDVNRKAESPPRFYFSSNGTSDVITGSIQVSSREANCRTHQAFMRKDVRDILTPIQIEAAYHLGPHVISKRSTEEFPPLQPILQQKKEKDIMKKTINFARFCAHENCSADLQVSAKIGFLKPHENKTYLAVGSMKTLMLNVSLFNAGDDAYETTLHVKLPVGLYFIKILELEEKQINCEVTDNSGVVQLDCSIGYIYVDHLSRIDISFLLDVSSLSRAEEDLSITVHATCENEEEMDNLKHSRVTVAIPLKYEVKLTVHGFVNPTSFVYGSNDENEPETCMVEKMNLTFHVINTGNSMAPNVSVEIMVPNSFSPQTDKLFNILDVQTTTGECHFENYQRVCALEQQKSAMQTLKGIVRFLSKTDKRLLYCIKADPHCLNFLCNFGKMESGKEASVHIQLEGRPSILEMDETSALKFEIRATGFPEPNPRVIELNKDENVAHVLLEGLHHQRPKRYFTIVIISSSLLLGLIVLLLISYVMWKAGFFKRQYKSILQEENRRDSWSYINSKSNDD
# Target: VLA-4 (Homo sapiens, UniProt P05556+P13612)
# Assay: VLA-4 direct binding assay (DBA)
row,IC50 [µM],Compound
1,10,CC(C)CC(NC(=O)Cc1ccc(NC(=O)NC2CCCCC2)cc1)C(=O)NC(CC(=O)O)c1ccc2c(c1)OCO2 (centres unmarked)
2,0.05,CC(C)CC(NC(=O)Cc1ccc(NC(=O)Nc2ccccc2)cc1)C(=O)NC(CC(=O)O)c1ccc2c(c1)OCO2 (centres unmarked)
